In US20240279332A1 (Amgen, published 2024):
Blank lines part the entries; values can stand above or below the binder they belong to.

By UniProt entry, the sequences of proteins in these tests, tags left out. Residues count along the entry.
UniProt Q9NP99, 21-234 limits assumed: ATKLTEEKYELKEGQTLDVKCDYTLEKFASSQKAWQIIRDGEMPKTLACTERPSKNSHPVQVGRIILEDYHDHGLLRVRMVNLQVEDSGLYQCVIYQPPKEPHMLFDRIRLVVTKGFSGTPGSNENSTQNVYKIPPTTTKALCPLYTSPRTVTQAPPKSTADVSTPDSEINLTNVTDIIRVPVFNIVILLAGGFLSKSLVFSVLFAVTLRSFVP
UniProt Q9NP99, 21-205 limits assumed: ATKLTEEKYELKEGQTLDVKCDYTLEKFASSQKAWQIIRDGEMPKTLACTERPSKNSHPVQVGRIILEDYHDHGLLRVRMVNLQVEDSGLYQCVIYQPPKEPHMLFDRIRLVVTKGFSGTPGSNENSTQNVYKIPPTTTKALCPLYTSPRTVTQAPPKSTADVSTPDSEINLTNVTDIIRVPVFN

What was measured:
[1] = molecular target: T1, human TREM-1 (TrigGering Receptor Expressed on Myeloid cells 1) on cells (human, UniProt Q9NP99 21-234); assay: cell-based or functional assay
[2] = molecular target: T2, cyno TREM-1 on cells (cynomolgus monkey, UniProt A0A2K5VHG8 21-233); assay: cell-based or functional assay
T2 sequence: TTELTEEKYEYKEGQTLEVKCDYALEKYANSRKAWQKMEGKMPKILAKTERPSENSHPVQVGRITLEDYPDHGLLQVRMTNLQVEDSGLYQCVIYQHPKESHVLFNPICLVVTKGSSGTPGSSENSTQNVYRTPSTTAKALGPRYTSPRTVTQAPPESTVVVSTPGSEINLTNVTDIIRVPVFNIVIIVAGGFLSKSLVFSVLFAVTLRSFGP

[3] = molecular target: T3, biotinylated human TREM-1-His antigen (human, UniProt Q9NP99 21-205, biotinylated in-house, site not stated); assay: limiting antigen assay, FACS on LumAvidin beads coated with 7.5 ng/mL biotinylated human TREM-1-His; antibody 5 ug/mL
T3 construct: Soluble TREM-1; also called b-huTREM-1-His; Soluble TREM1
From the text: TREM-1 Antibody Relative Affinity Ranking by Limiting Antigen Assay: TREM1 hybridoma supernatants were affinity-ranked within the panel by their binding kinetics to soluble TREM-1 in a limiting antigen assay using LUMAVIDIN® beads (Luminex) on FACS. Briefly, in-house biotinylated human TREM-1-His antigen (b-huTREM-1-His) was serially diluted in FACS buffer and combined with an equal volume of LUMAVIDIN® beads (different uniquely-barcoded bead for each antigen concentration), resulting in a 5-point 2-fold serial dilution series starting from a final b-huTREM-1-His antigen concentration of 30 ng/mL. The antigen-bead mixtures were plated across 3 wells in a 96-well FACS plate, then incubated for 30 minutes at room temperature protected from light. Beads were then pelleted by centrifugation, supernatant was removed by flicking, and wells were washed twice with 200 μL/well of FACS buffer. The different beads were then resuspended, pooled, and diluted in STABILGUARD® Immunoassay Stabilizer (SurModics) to block non-specific binding. Normalized TREM-1 hybridoma supernatants were combined with an equal volume of bead mixture in a FACS plate at a final concentration of 5 μg/mL test antibody to 0.5 μL beads/well. The plates were then shaken and incubated overnight for ˜18 hours at room temperature. Beads were then pelleted by centrifugation, supernatant was removed by flicking, and wells were washed twice with 200 μL/well of FACS buffer. ALEXA FLUOR® 488 Goat anti-Human IgG Fc secondary detection antibody (Jackson ImmunoResearch) was added at 5 μg/mL to the plates, shaken, and incubated for 15 minutes at room temperature protected from light. Beads were washed with FACS buffer, pelleted by centrifugation, supernatant was removed by flicking, and washed once more with FACS buffer. The beads were then resuspended and run on the BD ACCURI™ C6 Flow Cytometer with Intellicyt […]® autosampler.
The antibody binding signal correlates with antibody affinity; the degree of antibody binding to the target antigen TREM-1 correlates with the measured fluorescent intensity and thus allows a relative comparison of affinities across the panel.

[4] = molecular target: T2, cyno TREM-1 on cells; assay: FACS on HEK293 co-transfected with cyno TREM-1 and DAP12; hybridoma supernatant 2.5 ug/mL; geomean fold over irrelevant control antibody
Experimental: (§1) The TREM-1-specific antibodies identified in primary screening were evaluated for cross-reactivity to cynomolgus TREM-1, as well as specificity to TREM-1 and not DAP12. TREM-1 hybridoma supernatants were tested for binding to human or cyno TREM-1 transiently expressed on HEK293 cells by FACS (harvests 1-6) or by […]™ (harvests 8-9). […] The following day, transfected HEK293 cells were transferred into 96-well FACS plates at 50,000 cells/well and incubated with normalized hybridoma supernatants at a final concentration of 2.5 μg/mL for 1 hour at 4° C. Cells were then pelleted by centrifugation, supernatant was removed by flicking, and wells were washed twice with 200 μL/well of FACS buffer. 5 μg/mL ALEXA FLUOR® 647 Goat anti-Human IgG Fc (Jackson ImmunoResearch) secondary detection antibody and 2.5 μg/mL 7-aminoactinomycin-D (Sigma) viability stain were incubated with the cells for 15 minutes at 4° C. Cells were pelleted by centrifugation, supernatant was removed by flicking, and wells were washed once more with 200 μL/well of FACS buffer. TREM-1 hybridoma supernatants showing human TREM-1- or cyno TREM-1-specific binding was detected by FACS on the BD ACCURI™ 06 flow cytometer with Intellicyt autosampler. The data was reported as geomean (GM) fold over irrelevant control antibody binding.

[5] = molecular target: T1, human TREM-1 (TrigGering Receptor …); assay: FACS on HEK293 co-transfected with human TREM-1 and DAP12; hybridoma supernatant 2.5 ug/mL; geomean fold over irrelevant control antibody
Experimental: as §1

[6] = molecular target: T4, cyno TREM-1-His protein (cynomolgus monkey, UniProt A0A2K5VHG8 21-204); assay: Octet HTX BLI; antibody captured via anti-human Fc, cyno TREM-1-His analyte, 1:1 model
T4 construct: also called cyno TREM1 (soluble)
T4 sequence: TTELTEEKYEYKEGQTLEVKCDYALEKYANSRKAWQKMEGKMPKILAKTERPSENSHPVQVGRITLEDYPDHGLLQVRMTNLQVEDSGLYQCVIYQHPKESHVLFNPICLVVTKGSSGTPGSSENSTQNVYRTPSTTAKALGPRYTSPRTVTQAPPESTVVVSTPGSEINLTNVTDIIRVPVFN
Experimental: (§2) TREM1 Antibody Human/Cynomolgus Affinity Gap Determination: TREM-1 antibodies with unique CDR3 sequences that had also shown better binding in limiting antigen screens than the benchmark antibody were analyzed for their affinity to human and cyno TREM-1. […] Briefly, TREM-1 hybridoma supernatants normalized to 10 μg/mL in DMEM null media were prepared by diluting 1:10 in OCTET® assay buffer (10 mM Tris, 0.1% Triton X-100, 150 mM NaCl, 1 mM CaCl₂, 0.1 mg/mL BSA, at pH 7.6) to a final test concentration of 1 μg/mL. Amine reactive second-generation AR2G Biosensors (Molecular Devices) were pre-incubated in 200 μL nanopore water for a minimum of 10 minutes at room temperature before use. The AR2G Biosensors were then activated for 5 minutes in a solution of 20 mM EDC (1-Ethyl-3-[3-dimethylaminopropyl] carbodiimide hydrochloride) (ForteBio) pre-mixed with 10 mM NHS (N-hydroxysulfosuccinimide) (ForteBio) in nanopore water. An in-house generated mouse anti-human Fc monoclonal antibody was coupled to the AR2G Biosensors at 10 μg/mL in 10 mM sodium acetate buffer at pH 5 for 5 minutes, quenched with 1M ethanolamine at pH 8.5 for 5 minutes, and then used to capture antibody from solution. […] The association of recombinant human TREM-1 with the antibody-loaded sensor was measured for 5 minutes, followed by dissociation in OCTET® buffer for 10 minutes. […]

[7] = molecular target: T5, recombinant soluble human TREM-1-His protein (human, UniProt Q9NP99 21-205); assay: Octet HTX BLI; antibody captured via anti-human Fc, human TREM-1-His analyte, 1:1 model
T5 construct: Soluble TREM-1; also called recombinant human TREM-1
Experimental: as §2

- Ab IC50-Human PBMC (Trial 1), TNFα release after PGLYRP1/PGN [1]: 0.01 nM
- Ab IC50-Human PBMC (Trial 2), TNFα release after PGLYRP1/PGN [1]: 0.0069 nM
- Ab IC50-Cyno PBMC (Trial 1), TNFα release after cyno PGLYRP1/PGN [2]: 0.1 nM
- Ab IC50-Cyno PBMC (Trial 2), TNFα release after cyno PGLYRP1/PGN [2]: 0.0162 nM
- Soluble TREM1 7.5 ng/mL (FACS Geomean) [3]: 80400
- Cyno TREM1 GM Fold [4]: 228 fold
- Human TREM1 GM Fold [5]: 246 fold
B1: 34D1 (antibody, V domains shown)
VH: QVQLVQSGAEVKKPGASVKVSCKASGYTFTRYDINWVRQATGQGLEWMGWMNPNSGNSGSVQKFRGRVTMTRNTSIHIAYMELSSLRSEDTAVYYCARGGYTSSWRWYFDLWGRGTLVTVSS
VL: DIQMTQSPSSLSASVGDRVNITCQASQDIRKHLNWYQQKPGKAPNLLIYDAANLETGVPSRFSGSGSGTAFTFTISSLQPEDIATYYCQHYANLPITFGQGTRLEIKR
notes: also called TREM1 antibody 34D1

- koff [6]: 0.000882 s⁻¹
- kon [6]: 489000 M⁻¹ s⁻¹
- koff [7]: 0.000263 s⁻¹
- kon [7]: 462000 M⁻¹ s⁻¹
B2: 3E12 (antibody, V domains shown)
VH: QVQLVQSGAEVKKPGASVKVSCKASGYTFNGYYIHWVRQAPGQGLEWMGWLNPNSGGANYAQKFQGWVTMTRDTSISTAYMELSRLTSDDTAVYYCARDQRKTTVTPFEYWGQGTLVTVSS
VL: SYELTQPPSVSVSPGQTASITCSGDKLGERNVCWYQLKPGQSPILVIYQDNKRPSGIPERFSGSKSGNTAILTISGTQAMDEADYYCQAWDRNVVFGGGTKLTVLG
notes: also called TREM1 antibody 3E12
